Measurements published in ChEMBL document CHEMBL1132995, “High-affinity, non-peptide agonists for the ORL1 (orphanin FQ/nociceptin) receptor” (2000).

What was measured:
[1] = molecular target: T1, Delta-type opioid receptor (Homo sapiens, UniProt P41143); assay: Competitive binding displacement analyses was performed from permanently transfected HEK293 cells expressing Opioid receptor delta 1
Nociceptin receptor [2] = molecular target: T2, Nociceptin receptor (Homo sapiens, UniProt P41146); assay: Competitive binding affinity against transfected HEK293 cells expressing Opioid receptor like 1
Mu-type opioid receptor [3] = molecular target: T3, Mu-type opioid receptor (Homo sapiens, UniProt P35372); assay: Competitive binding displacement analyses was performed from permanently transfected HEK293 cells expressing Opioid receptor mu 1
[4] = molecular target: T4, Kappa-type opioid receptor (Homo sapiens, UniProt P41145); assay: Competitive binding displacement analyses was performed from permanently transfected HEK293 cells expressing Opioid receptor kappa 1
[5] = molecular target: T1, Delta-type opioid receptor; assay: Competitive binding displacement analyses was performed from permanently transfected HEK293 cells expressing human Opioid receptor delta 1
Mu-type opioid receptor [6] = molecular target: T3, Mu-type opioid receptor; assay: Competitive binding displacement analyses was performed from permanently transfected HEK293 cells expressing human Opioid receptor mu 1
[7] = molecular target: T4, Kappa-type opioid receptor; assay: Competitive binding displacement analyses was performed from permanently transfected HEK293 cells expressing human Opioid receptor kappa 1
Nociceptin receptor [8] = molecular target: T2, Nociceptin receptor; assay: Competitive binding affinity against transfected HEK293 cells expressing human Opioid receptor like 1
Nociceptin receptor [9] = molecular target: T2, Nociceptin receptor; assay: Effective concentration required to stimulate binding of GTPgammaS to ORL1 receptor was determined using scintillation proximity assay
Mu-type opioid receptor [10] = molecular target: T3, Mu-type opioid receptor; assay: Effective concentration required to stimulate binding of GTPgammaS to mu1 receptor was determined using scintillation proximity assay

Row | SMILES | Ki [1] [nM] | Ki (Nociceptin receptor [2]) [nM] | Ki (Mu-type opioid receptor [3]) [nM] | Ki [4] [nM] | Ki [5] [nM] | Ki (Mu-type opioid receptor [6]) [nM] | Ki [7] [nM] | Ki (Nociceptin receptor [8]) [nM] | EC50 (Nociceptin receptor [9]) [nM] | EC50 (Mu-type opioid receptor [10]) [nM]
1 | O=C1NCN(c2ccccc2)C12CCN([C@@H]1CCCc3ccccc31)CC2 | 530 | 2.5 | 12.3 | 46.3 |  |  |  |  |  | 
2 | O=C(CN1CN(c2ccccc2)C2(CCN(C3CCc4cccc(Cl)c4C3)CC2)C1=O)c1ccccc1 (configuration not stated) |  |  |  |  | 510 | 61 | 28.8 | 15 |  | 
3 | O=C1NCN(c2ccccc2)C12CCN(C1CCc3cccc(Cl)c3C1)CC2 (configuration not stated) |  |  |  |  | 1410 | 16.6 | 48 | 7.3 |  | 
4 | Cc1cccc2c1CCCC2N1CCC2(CC1)C(=O)NCN2c1ccccc1 (configuration not stated) |  |  |  |  | 460 | 31.7 | 44 | 1.4 | 510 | 3700
5 | O=C1NCN(c2ccccc2)C12CCN(C1CCc3ccc(Cl)cc3C1)CC2 (configuration not stated) |  |  |  |  | 480 | 10.9 | 16.4 | 5.8 |  | 
6 | O=C1N(Cc2ccccc2)CN(c2ccccc2)C12CCN(C1CCc3c(Cl)ccc(Cl)c3C1)CC2 (configuration not stated) |  |  |  |  | 146 | 19.2 | 52 | 15.3 |  | 
7 | O=C1NCN(c2ccccc2)C12CCN(C1CCCc3ccccc31)CC2 (configuration not stated) | 480 | 2.1 | 12.8 | 10.7 |  |  |  |  | 87 | 
8 | O=C1NCN(c2ccccc2)C12CCN(C1CCc3cc(Cl)ccc3C1)CC2 (configuration not stated) |  |  |  |  | 1800 | 77 | 149 | 218 |  | 
9 | O=C1NCN(c2ccccc2)C12CCN([C@H]1CCCc3ccccc31)CC2 |  | 10.2 | 13.3 | 17 |  |  |  |  |  | 
10 | O=C1NCN(c2ccccc2)C12CCN(C1CCc3ccccc3C1)CC2 (configuration not stated) |  |  |  |  | 620 | 15.1 | 47.1 | 6.3 |  | 
